Chains of the proteins cited; added tags and fusions are not shown. A line that says so, or that is headed by a name, gives the form on record, which may keep a tag or linker. Residues count along the entry.
UniProt Q16552, 24-154 with tags or gaps K93Q: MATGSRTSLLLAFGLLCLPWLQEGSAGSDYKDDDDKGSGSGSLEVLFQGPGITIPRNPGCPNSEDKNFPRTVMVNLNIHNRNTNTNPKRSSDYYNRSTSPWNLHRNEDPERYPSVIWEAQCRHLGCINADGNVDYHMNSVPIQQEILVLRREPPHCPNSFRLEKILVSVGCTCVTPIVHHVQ

In US11702422B2, “Imidazopyridazines as modulators of IL-17” (Janssen Pharmaceutica NV, priority 2020, dated 2023):

What was measured:
[1] = molecular target: IL-17A(FLAG-Tagged): IL-17RA(His-Tagged) (Homo sapiens, UniProt Q16552, K93Q); assay: IL-17A(FLAG-Tagged): IL-17RA(His-Tagged) Binding Disruption Eu-HTRF Assay; conditions: read-out: HTRF IC50, IL-17A/IL-17RA binding disruption, simple average if tested more than once
Excerpt: IL-17A(FLAG-Tagged): IL-17RA(His-Tagged) Binding Disruption Eu-HTRF Assay
An antibody directed against the FLAG tag of IL-17A (SEQ ID NO:1) is labeled with the HTRF donor chromophore (Europium-cryptate). IL-17A is present as a dimer that is “locked into” this quaternary structure due to the formation of loop-spanning […] disulfide bridges. The construct of IL-17RA used in the assay excludes the […] portion of the receptor and is fused to a C-terminal 10×His tag (SEQ ID NO:2). An antibody directed against the His tag of the IL-17RA chimera is labeled with the HTRF acceptor chromophore (“D2”). The fluorescence-resonance energy transfer (FRET) depends on the vicinity of the donor chromophore to the acceptor, and interruption of the binding between the IL-17A and IL-17RA causes the reduction/loss of FRET. Therefore, this assay allows to evaluate the compound effect on the binding IL-17A and IL-17RA by monitoring the fluorescence intensity of donor vs acceptor. […]
40 nl of 2-fold serial diluted compound solution for total 22 dilution points is added into each well of a 1536-well, white, low-volume, non-binding plate (Greiner #782904), then 2 μl of FLAG tagged IL-17A at 2× final concentration (2.5 nM) in solution of PBS+0.01% Triton-X100 is added to each well. […] The HTRF intensities at the wavelength of donor (620 nm) and acceptor (665 nm) are measured using BMG Pherastar. […]

[2] = test system: IL-17A-induced G-CSF production in human normal keratinocyte (NHK); assay: NHK Assay: IL-17A-induced G-CSF production in human normal keratinocytes; conditions: read-out: NHK IC50, adult normal human keratinocytes, IL-17A 5 ng/mL, 24 h, simple average if tested more than once
Method: IL-17A acts directly on keratinocytes through binding to dimeric receptor IL-17RA/RC and drives the production of a number of inflammatory mediators known to be elevated in psoriasis lesional tissue. IL-17A small molecule inhibitors that block the IL-17A to interact with IL-17R would inhibit the IL-17A signaling in its targeted cells such as keratinocytes. The compound functional activity is evaluated for its impact on IL-17A-induced G-CSF production in human normal keratinocyte (NHK).
Adult normal human keratinocytes are cultured in keratinocyte growth medium (Lonza) in a flask till reaching ˜ 90% confluence, then cells are transferred to a 384-well plate at density of 3000-4000 cell/well. Recombinant human IL-17A (Gibco PHC9174) is pre-incubated with titrated compound or DMSO for 1 h at rt then added to the cell culture plate. The final concentration of IL-17A is 5 ng/mL and DMSO is 0.2%, in the culture containing 5% FBS. Cells are cultured/treated for 24 h at 37° C. Supernatants are collected and G-CSF production is measured through HTRF technology using Human G-CSF Kit (CisBio). G-CSF concentration was extrapolated from the standard curve and IC50 is determined using GraphPad Prism. Cell viability is also evaluated using CellTiter-Glo kit (Promega) and effect of compound on cell viability is compared to DMSO control.

## O=C(N[C@H](c1cn2ncc([C@H](NC(=O)[C@H](O)CC(F)(F)F)C3CC3)cc2n1)C1CCC(F)(F)CC1)c1cnn(CC(F)(F)F)n1
[1]
  IC50: 340 nM
[2]
  IC50: 1000 nM
